Test results taken from EP3428178B1, “PEPTIDE FOR PREVENTING OR TREATING INFLAMMATORY DISEASES AND USE THEREOF” (dated 2026).

Columns and labels:
[1] = test system: collagen-induced arthritis (CIA) mouse model; assay: Arthritis progression index in collagen-induced arthritis (CIA) mouse model
Protocol: A collagen-induced arthritis (CIA) mouse model was prepared as follows, as an autoimmune disease-based arthritis model with characteristics similar to human rheumatoid arthritis.
(§1) First, a bovine type II collagen (Chondrex Corporation, USA) and a Freund's complete adjuvant (Chondrex Corporation, USA) were mixed at a ratio of 1:1 and emulsified, and then 50 µl of the emulsified collagen solution was injected intradermally into the tail of a 6-week-old DBA/1J mouse to induce primary immunization. […]
In order to investigate the development of arthritis progression according to the peptide treatment of the present invention, the deepening degree of arthritis with time was measured by evaluating an arthritis progression index. Two observers who were unaware of the specific experimental conditions evaluated progression of arthritis three times a week. In this case, the arthritis progression index was evaluated by 0 to 4 scores per leg according to an arthritis progression evaluation standard by Rossoliniec and the like in Table 2 below to be represented by a total of 0 to 16 scores (a sum of four legs), and thereafter, two observers calculated an average value of the evaluated results to digitize the severity of arthritis. […]

[2] = test system: joint region of collagen-induced arthritis mouse model; assay: Histological analysis (H&E staining) of hind leg joint tissue of CIA mouse; details: FIG. 6
Protocol: First, a bovine type II collagen (Chondrex Corporation, USA) and a Freund's complete adjuvant (Chondrex Corporation, USA) were mixed at a ratio of 1:1 and emulsified, and then 50 µl of the emulsified collagen solution was injected intradermally into the tail of a 6-week-old DBA/1J mouse to induce primary immunization. At two weeks after the primary immunization, the bovine type II collagen and the Freund's complete adjuvant were mixed at a ratio of 1:1 and emulsified, and then 50 µl of the emulsified collagen solution was injected intradermally into the tail of the mouse again to induce secondary immunization (boosting). After the secondary immunization, the peptide of the present invention (the PSP dimer (1 µmole) or the PSP trimer (1 µmole)) was administered intraperitoneally three times a week from the next day, and as a comparative experimental group, a PSP monomer-treated group and as a control (Vehicle control), a PBS-treated group were used, respectively. The preparation process of the collagen-induced arthritis mouse model and the administration time of the peptide were schematically illustrated in FIG. 1.
In order to confirm a healing effect of the cartilage damage of the joint region according to the peptide treatment of the present invention, the deepening degree of arthritis in Example 2-2 was evaluated and then, a histological analysis was performed. […]

IL-18 = IL-18 expression in joint tissue by immunohistochemistry (IHC); details: FIG. 7
Protocol: as §1, with “immunization. At two weeks after the primary immunization, the bovine type II collagen and the Freund's complete adjuvant were mixed at a ratio of 1:1 and emulsified, and then 50 µl of the emulsified collagen solution was injected intradermally into the tail of the mouse again to induce secondary immunization (boosting).” for “immunization.”
Rheumatoid arthritis is one of chronic inflammatory diseases and it has been reported to increase the concentration of inflammatory cytokine such as interleukin-18 (IL-18) even in the joint tissues as well as the blood of a patient with rheumatoid arthritis. […] The expression of IL-18 was measured by using immunohistochemistry (IHC), and to this end, a paraffin ingredient was removed from the paraffin tissue fragment and then rehydrated to create an environment in which the antibodies may be stained. […]

O=C(N[C@@H](CO)C(=O)N1CCC[C@H]1C(=O)N1CCC[C@H]1C(=O)N[C@@H](CO)C(=O)N1CCC[C@H]1C(=O)O)[C@@H]1CCCN1
arthritis progression index compared with methotrexate ([1]; methotrexate 1 mg/kg, Tables 6 and 7): approximate arthritis progression index to the group treated with methotrexate | swelling and redness around the ankle joint ([1]; visual check, compared with the control, FIG. 5): remarkably mitigated | immune cell infiltration, pannus formation, cartilage destruction, and bone erosion of the joint region [2]: greatly reduced | expression of IL-18 (IL-18): largely decreased to the normal mouse level
